Results: US10214584B2, “Therapeutic pharmaceutical composition employing anti-SLC6A6 antibody” (ORDER-MADE MEDICAL RESEARCH INC., priority 2014, dated 2019)

Test system: cells
Assay: Internalization by flow cytometry with surface quench by anti-Alexa Fluor 488 antibody
Format: cell-based
Settings: labeled antibody 30 μg/mL, 1 hour room temperature and 3 hours 37° C., FIG. 13B
Protocol: Analysis was performed on an isotype control (whole human IgG was used as a negative control), cetuximab (Cetuximab), the 402 human-mouse chimeric antibody (Chimeric 402), the 430 human-mouse chimeric antibody (Chimeric 430) and the 4B9b human-mouse chimeric antibody (Chimeric 4B9b), each being labeled with Alexa Fluor 488. These antibodies were analyzed for their internalization by flow cytometry using cells treated in two ways.
For the first way, the following operations were performed. Cells detached from culture dishes were suspended in staining buffer [PBS(−)-3% fetal bovine serum]. […] After being further rotated with a rotator at 37° C. for 3 hours, the cells were washed three times with the staining buffer and then measured for fluorescence signals by flow cytometry (FIG. 13B; isotype control, chimeric antibody).
The second way is to confirm that the fluorescence in the cells obtained in the first way arises from the dye conjugated to the antibody taken up into the cells. The cells obtained in the first way were reacted at 4° C. for 1 hour with an antibody binding to Alexa Fluor 488 and thereby quenching its fluorescence (anti-Alexa Fluor 488, rabbit IgG antibody fraction: anti-Alexa Fluor 488 antibody) at a final concentration of 50 μg/mL to observe changes in fluorescence intensity (FIG. 13B; surface quench). […]

“cetuximab: anti-EGFR antibody [reference compound]” was tested, and the “fluorescence upon addition of the anti-Alexa Fluor 488 antibody (surface quench)” value was “partially disappeared”.
